In ChEMBL document CHEMBL4706772, “Structure-Based Design of A-1293102, a Potent and Selective BCL-X Inhibitor” (ACS Med Chem Lett, 2021):
pKi: −log10 of the molar value.

Amino acid sequences for entries named in this document (tags omitted).
UniProt P10415, whole entry: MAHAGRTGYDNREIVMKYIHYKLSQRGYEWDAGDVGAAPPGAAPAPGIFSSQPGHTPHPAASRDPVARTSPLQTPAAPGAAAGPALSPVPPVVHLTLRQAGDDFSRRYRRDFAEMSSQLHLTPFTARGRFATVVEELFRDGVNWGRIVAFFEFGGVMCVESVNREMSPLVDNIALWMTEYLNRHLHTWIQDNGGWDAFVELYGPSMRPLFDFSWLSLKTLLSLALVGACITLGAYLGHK

Biological target: Apoptosis regulator Bcl-2 (Homo sapiens, UniProt P10415)
Test: Inhibition of F-Bak binding to GST-tagged BCL2 (unknown origin) measured after 1 hr by TR-FRET assay

## CC1(C)CCC(c2ccc(Cl)cc2)=C(CN2CCN(c3ccc(C(=O)NS(=O)(=O)c4ccc(N[C@H](CCN5CCOCC5)CSc5ccccc5)c(S(=O)(=O)C(F)(F)F)c4)cc3)CC2)C1 [NAVITOCLAX]
  pKi: > 10.00
